This is an account of results in patent publication US11369596B2, “Methods of treating a neurodegenerative disease in a mammal in need thereof” (Thomas Jefferson University, priority 2013, dated 2022).

In one data set the test system is ALS. The conditions noted are these: cited from earlier work.

On to `Nc1nc2ccc(OC(F)(F)F)cc2s1` [riluzole, 6-(trifluoromethoxy)benzothiazol-2-amine], for which the “survival compared to control mice” value in the data set on SOD1-G93A mice (riluzole alone) was “did not extend survival”. The compound further returned a survival in the data set on SOD1-G93A mice (treatment from 100 days of age) of 159.7 ± 1.9 days. In addition, the prolongation of survival entry with ALS (ALS patients) is recorded as “several months”. Further, the “patients with liver damage” value in the data set with ALS is “about 10%”.
